This is a selection; strong and weak results do not stand in their true shares. The source made the active and inactive calls.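 The calls were made as follows: active = mean inhibition of at least 70% across replicates, with every replicate also reaching that level; inconclusive = mean inhibition reaches 70% but some replicates fall short; inactive = mean inhibition below 70%.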
Each compound was assayed against Protein S100-A4 (Homo sapiens) (UniProt P26447) (assay: human S100A4 protein-peptide interaction blockers – biochemical, fluorescence polarization, TAMRA-MyoIIA peptide, primary screen (AID 652163)). Settings: at 10.7 µM, hits give high values.

Amino acid sequences for entries named in this document (tags omitted). A change or cut given only in a name is not applied to a line headed by its entry.
UniProt P26447: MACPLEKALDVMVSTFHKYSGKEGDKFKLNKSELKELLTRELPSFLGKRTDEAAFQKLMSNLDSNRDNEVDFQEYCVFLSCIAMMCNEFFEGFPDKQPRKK

| SMILES | inhibition |
| --- | --- |
| Cc1ccc(OP(=O)(Nc2ccc([N+](=O)[O-])cn2)Oc2ccc(C)cc2)cc1 | inactive: -0.391% |
| Cc1ccc2nc3c(c(C)c2c1)CC(C(Cl)Cl)S3 (configuration not stated) | inactive: -6.36% |
| O=[N+]([O-])c1cc(Oc2ccc([N+](=O)[O-])cc2C(F)(F)F)cc([N+](=O)[O-])c1 | inactive: 3.76% |
| COc1ccc(N/C(=N/P(=O)(N2CCOCC2)N2CCOCC2)N2CCOCC2)cc1 | inactive: -0.979% |
| Cc1c2c(nc3ccccc13)SC(C(Cl)Cl)C2 (configuration not stated) | inactive: -1.96% |
| Cc1cc(=O)[nH]c(N[N+](=O)[O-])n1 | inactive: 0.0565% |
| COc1ccc(CN2/C(=N\P(=O)(Oc3ccccc3)Oc3ccccc3)Cc3ccccc3C2C2CC2)cc1 (configuration not stated) | inactive: 13.7% |
| O=P1(N(CCCl)CCCl)OCCCN1CCCl (configuration not stated) | inactive: 3.15% |
| COc1ccc2nc(NP(=O)(c3ccccc3)c3ccccc3)sc2c1 | inactive: -0.153% |
| COc1cc(I)ccc1[As](=O)(O)O | inactive: -0.198% |
| O=C(NC(Sc1ccncn1)C(Cl)(Cl)Cl)c1ccccc1 (configuration not stated) | inactive: 13.7% |
| CC(C)CC(=O)NC(Sc1ccc(Cl)cc1)C(Cl)(Cl)Cl (configuration not stated) | inactive: 2.18% |
| Nc1cc(N)c2nonc2c1[N+](=O)[O-] | inactive: 12.5% |
| CN(C(=O)Cc1ccc(Cl)c(Cl)c1)[C@H]1CCCC[C@H]1N1CCCC1 | inactive: 1.12% |
| Cc1ccc(N/C(=N/P(=O)(N2CCOCC2)N2CCOCC2)N2CCOCC2)cc1 | inactive: -1.97% |
| NC(=O)c1cc([N+](=O)[O-])cc([N+](=O)[O-])c1N | inactive: -0.458% |
| Clc1ccc(Cl)c(NC2=NCC(CBr)S2)c1 (configuration not stated) | inactive: -2.88% |
| COc1ccccc1OP(=O)(Nc1ccc(C)cn1)Oc1ccccc1OC | inactive: -5.67% |
| Cc1ccc(OP(=O)(Nc2nccs2)Oc2ccc(C)cc2)cc1 | inactive: -1.44% |
| Nc1cccc2ccc([As](=O)(O)O)cc12 | inactive: 64.1% |
| CN(C(=O)Cc1ccccc1)C1CC[C@@]2(CCCO2)C[C@@H]1N1CCCC1 (some centres not stated) | inactive: -4.39% |
| CN(C)P(=O)(N(C)C)n1c(Nc2ccccc2)nnc1-c1ccccc1 | inactive: 1.07% |
| O=P(Nc1nc2ccc(Cl)cc2s1)(c1ccccc1)c1ccccc1 | inactive: 1.43% |
| O=C(O)c1ccccc1[As](=O)(O)O | inactive: -4.08% |
| CC(=O)Nc1ccc([As](=O)(O)O)cc1 | inactive: -2.2% |
| CCCC1OP(N)(=O)OCC1CC (configuration not stated) | inactive: -2.31% |
| CCn1c(=O)n(C2CCN(CC3CCCCCCC3)C[C@H]2CO)c2ccccc21 (some centres not stated) | inactive: 1.67% |
